# Antibody variant affinities, Ab-14 heavy chain, assay 1

Antigen: PDVDLGDISGINAS, a 14-residue peptide of the SARS-CoV-2 spike HR2 region.

The variants keep the light chain, the linker and the frameworks of Ab-14 (scFv order VH, a (GGGGS)3 linker, VL).
VH: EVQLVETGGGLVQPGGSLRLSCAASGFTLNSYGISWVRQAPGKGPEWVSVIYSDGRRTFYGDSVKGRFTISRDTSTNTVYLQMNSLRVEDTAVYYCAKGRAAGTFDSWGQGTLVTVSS
VL: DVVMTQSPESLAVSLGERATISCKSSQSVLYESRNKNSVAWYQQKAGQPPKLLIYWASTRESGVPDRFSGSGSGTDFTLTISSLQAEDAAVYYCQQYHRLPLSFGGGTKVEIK

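The starting antibody came from a phage panning campaign against this peptide. In library AAYL49, one, two or three CDR residues were substituted; doubles and triples were drawn at random. In AlphaSeq, yeast of one mating type display the scFv and yeast of the other type display the target. Mating (16 h, 30 °C) was followed by selection of diploids and sequencing of their barcodes. The ratio of observed to expected reads was calibrated, replicate by replicate, on BCL2-family standards whose Kd was known from biolayer interferometry. The assay was run in three technical replicates.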

Positions count from residue 1 of the parent VH; I34D puts D in place of I. Values are log10 of the apparent Kd in nM; lower means stronger binding. Replicates are averaged; those with no signal do not enter the mean. Where no diploid with the target was found in any replicate, the entry reads "no signal": below detection, most likely a poor binder, though not proof of it. Nonspecific signal, from three strains lacking the peptide, appeared in 15% of pairings of library AAYL49, centred on 4.06 (5% of these signals below 2.83); values are not corrected for it. In this assay the parent's reference entry averaged 0.65; its copy inside this library read 4.11 (one replicate of three).

| # | changes | mean log10 Kd (nM) | replicates with signal |
|---|---|---|---|
| 1 | I34D R56V S107E | 1.26 | 3 of 3 |
| 2 | S35Y D54F F59A | 4.06 | 2 of 3 |
| 3 | T58L S63M G99D | no signal | 0 of 3 |
| 4 | G61A R100P G103I | no signal | 0 of 3 |
| 5 | G33V R56F V64K | no signal | 0 of 3 |
| 6 | T28P D54R R100G | no signal | 0 of 3 |
| 7 | R56L A101V | 0.16 | 3 of 3 |
| 8 | N30E F59S Y60T | 3.42 | 3 of 3 |
| 9 | G55M R100I D106Q | no signal | 0 of 3 |
| 10 | G99C T104H D106M | 0.86 | 3 of 3 |
| 11 | F27C R57F D62I | no signal | 0 of 3 |
| 12 | S35R S53H S63L | 2.94 | 1 of 3 |
| 13 | G33D G55N A102L | 4.56 | 2 of 3 |
| 14 | Y32V S35W A101G | 5.57 | 2 of 3 |
| 15 | I34V V64D T104H | 4.24 | 1 of 3 |
| 16 | T58D S63T | no signal | 0 of 3 |
| 17 | I34R A101D D106C | 4.03 | 2 of 3 |
| 18 | I34P R57F S107N | 5.74 | 1 of 3 |
| 19 | R56G T58P | no signal | 0 of 3 |
| 20 | S31H R100S | 1.44 | 3 of 3 |
| 21 | D54L G61T A102G | no signal | 0 of 3 |
| 22 | Y60E A102Q T104C | no signal | 0 of 3 |
| 23 | D54E K65P R100Q | no signal | 0 of 3 |
| 24 | F27H N30G R57M | 5.71 | 1 of 3 |
| 25 | N30I F105V S107V | 2.41 | 3 of 3 |
| 26 | I51Y Y60M A101E | 4.25 | 2 of 3 |
| 27 | V50I T58V G99M | 4.15 | 2 of 3 |
| 28 | T28I R56A | 1.36 | 3 of 3 |
| 29 | Y32V D54G A101F | 3.45 | 1 of 3 |
| 30 | N30H K65A R100E | 0.93 | 3 of 3 |
| 31 | G33S R57W F105N | 5.34 | 2 of 3 |
| 32 | I34S D62Y V64T | no signal | 0 of 3 |
| 33 | V50F T104M D106M | no signal | 0 of 3 |
| 34 | G61I G99V A102Q | 3.33 | 3 of 3 |
| 35 | F27E G55V G103H | 4.88 | 2 of 3 |

Continued, with the values leading:

| # | mean log10 Kd (nM) | replicates with signal | changes |
|---|---|---|---|
| 36 | 1.99 | 1 of 3 | T58Q Y60M S107Q |
| 37 | no signal | 0 of 3 | L29D V50C |
| 38 | 4.47 | 1 of 3 | G55H R57P A102L |
| 39 | no signal | 0 of 3 | F27P D62V S63K |
| 40 | 4.02 | 2 of 3 | V50A K65Q |
| 41 | no signal | 0 of 3 | G26W Y52H R56I |
| 42 | 5.56 | 1 of 3 | I34S F59D |
| 43 | 4.46 | 3 of 3 | I34P Y52M T104Q |
| 44 | 3.58 | 1 of 3 | T28S G55Q Y60T |
| 45 | 0.48 | 3 of 3 | R56L G61R S107Q |
| 46 | 1.20 | 3 of 3 | T28S K65M D106F |
| 47 | 3.53 | 2 of 3 | S35C S53E T58I |
| 48 | 3.11 | 1 of 3 | F59W Y60Q G61W |
| 49 | 3.46 | 2 of 3 | I51F V64N D106C |
| 50 | no signal | 0 of 3 | D54A D62M |
| 51 | no signal | 0 of 3 | D54H G55R D62Q |
| 52 | no signal | 0 of 3 | D62I A101E F105W |
| 53 | no signal | 0 of 3 | S35M S53G G103Q |
| 54 | 4.98 | 2 of 3 | G33S R56C T58M |
| 55 | 2.78 | 2 of 3 | G26N K65S |
| 56 | 4.39 | 1 of 3 | Y60W V64K G103M |
| 57 | 4.38 | 2 of 3 | S35M S53D K65N |
| 58 | no signal | 0 of 3 | D54M G99M S107W |
| 59 | 2.05 | 1 of 3 | R100T D106H |
| 60 | no signal | 0 of 3 | S53L G55T V64I |
| 61 | 3.50 | 1 of 3 | V50N D54Q R100M |
| 62 | no signal | 0 of 3 | N30F G55I R56H |
| 63 | no signal | 0 of 3 | G61K G99A D106C |
| 64 | 1.82 | 2 of 3 | R57N G103M S107H |
| 65 | 3.51 | 1 of 3 | S31K Y60I D106R |
| 66 | 3.84 | 1 of 3 | Y32H I51E Y60Q |
| 67 | no signal | 0 of 3 | I51G D62W G99D |
| 68 | no signal | 0 of 3 | T28H N30Q V64H |
| 69 | no signal | 0 of 3 | I34P D54C |
| 70 | 4.05 | 1 of 3 | I51M R56K V64R |

For reference, 4 entries of the list once more:

| changes | mean log10 Kd (nM) | replicates with signal |
|---|---|---|
| T28I R56A | 1.36 | 3 of 3 |
| D54A D62M | no signal | 0 of 3 |
| Y32V D54G A101F | 3.45 | 1 of 3 |
| Y32H I51E Y60Q | 3.84 | 1 of 3 |

Source: Engelhart et al. 2022 (doi:10.1038/s41597-022-01779-4), MIT Lincoln Laboratory and A-Alpha Bio; data file from the FLAb repository.